Source: patent US20090209535A1, “6-ETHER/THIOETHER-PURINES AS TOPOISOMERASE II CATALYTIC INHIBITORS AND THEIR USE IN THERAPY” (TOPOTARGET A/S, priority 2005, published 2009)

Tested on: human SCLC OC—NYH cells
Test: Clonogenic assay, antagonism of etoposide-induced cytotoxicity
Conditions: concentrations up to 300 μM

Nc1nc2nc[nH]c2c(=S)[nH]1 [6-thioguanine]
effect on the level of etoposide-induced cytotoxicity, in words: no detectable effect
